Our source for the IC50 values is PubChem BioAssay AID2255 (Sanford-Burnham Center for Chemical Genomics, 2010).

For orientation: IC50 means the concentration needed to halve the response being measured.

Structures are written as SMILES. Calls of active or inactive are those of the source. A value given as a limit tells only on which side of the number the result lay.

The test system of this assay is NF-kB luciferase reporter cells, doxorubicin-induced. Briefly: PubChem AID 2255.

As to `Cc1ccc(S(=O)(=O)n2c(N)nc3ccccc32)cc1`, the IC50 was inactive: > 25 µM.
